From paper PMC11272584 (Nature Metabolism, 2024)
Numbering of substitutions follows the chain as printed.

Columns and labels:
GIPR I299V = target: T1, GIPR I299V (Homo sapiens, UniProt P48546, I299V); details: GIPR I299V (5.39), mean, n = 3, duplicate
T1 sequence (P48546 22-466 I299V): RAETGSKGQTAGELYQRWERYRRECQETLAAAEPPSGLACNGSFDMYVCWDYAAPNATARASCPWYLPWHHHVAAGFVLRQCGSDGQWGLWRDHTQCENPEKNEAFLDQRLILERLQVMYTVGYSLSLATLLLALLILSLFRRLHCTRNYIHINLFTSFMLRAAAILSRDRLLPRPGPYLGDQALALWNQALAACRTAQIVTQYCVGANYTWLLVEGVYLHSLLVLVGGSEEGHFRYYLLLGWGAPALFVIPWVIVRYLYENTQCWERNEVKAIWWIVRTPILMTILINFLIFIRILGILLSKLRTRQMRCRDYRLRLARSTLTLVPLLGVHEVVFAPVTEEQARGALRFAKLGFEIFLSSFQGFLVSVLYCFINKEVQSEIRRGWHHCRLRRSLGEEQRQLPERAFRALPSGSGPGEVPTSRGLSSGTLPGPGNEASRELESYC

GIPR A207V = target: T2, GIPR A207V (Homo sapiens, UniProt P48546, A207V); details: HEK293A, 1 µM GIP minus vehicle, n = 4, P = 0.000105
T2 sequence (P48546 22-466 A207V): T1 sequence (P48546 22-466 I299V) with A186V, V278I

GIPR A150T = target: T3, GIPR A150T (Homo sapiens, UniProt P48546, A150T); assay: cAMP accumulation; assay type: cell-based; parameters: host or cells: HEK293
T3 sequence (P48546 22-466 A150T): T1 sequence (P48546 22-466 I299V) with A129T, V278I

GIPR R164Q = target: T4, GIPR R164Q (Homo sapiens, UniProt P48546, R164Q); assay: cAMP accumulation; assay type: cell-based; parameters: host or cells: HEK293
T4 sequence (P48546 22-466 R164Q): T1 sequence (P48546 22-466 I299V) with R143Q, V278I

GIPR T168A = target: T5, GIPR T168A (Homo sapiens, UniProt P48546, T168A); assay: cAMP accumulation; assay type: cell-based; parameters: host or cells: HEK293
T5 sequence (P48546 22-466 T168A): T1 sequence (P48546 22-466 I299V) with T147A, V278I

What does the source list for “glucose-dependent insulinotropic polypeptide [GIP]”?
logEC50 (Arrestin) (GIPR I299V; Hill slope 1.0): -9.0; Arrestin (Emax) (GIPR I299V; normalized to WT GIPR): 76; Mean of ΔBRET (GIPR A207V): 0.1369; cAMP (Emax) (GIPR A150T; HEK293, GIP(1–42) 1 pM–100 nM, 30 min 37 °C, mean of n = 3): 16 % of WT GIPR activity; logEC50 (cAMP) (GIPR A150T; HEK293, Hill slope 1.0, mean of n = 3): -11.3; cAMP (Emax) (GIPR R164Q; HEK293, GIP(1–42) 1 pM–100 nM, 30 min 37 °C, mean of n = 6): 135 % of WT GIPR activity; logEC50 (cAMP) (GIPR R164Q; HEK293, Hill slope 1.0, mean of n = 6): -10.8; cAMP (Emax) (GIPR T168A; HEK293, GIP(1–42) 1 pM–100 nM, 30 min 37 °C, mean of n = 4): 28 % of WT GIPR activity; logEC50 (cAMP) (GIPR T168A; HEK293, Hill slope 1.0, mean of n = 4): -10.9
